{
  "sequences": {"note": "Protein sequences, listed by entry. Tags and fused reporters are not part of them. Residues count along the entry.", "UniProt P10153, 28-161": "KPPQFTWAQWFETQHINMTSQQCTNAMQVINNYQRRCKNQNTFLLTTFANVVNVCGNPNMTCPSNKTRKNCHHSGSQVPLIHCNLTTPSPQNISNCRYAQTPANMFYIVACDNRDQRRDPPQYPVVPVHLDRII"},
  "source": "paper PMC6005897",
  "about": "“Ligand-Induced Variations in Structural and Dynamical Properties Within an Enzyme Superfamily” (Frontiers in Molecular Biosciences, 2018)",
  "biological_target": "T1, human RNase 2 (RN2_Human) (Homo sapiens, UniProt P10153)",
  "T1 construct": "made in house; host or cells: Escherichia coli",
  "test": "NMR chemical shift titration, ligand binding to human RNase 2",
  "details": "298 K, 15 mM sodium acetate pH 5.0, ± standard deviation of the fit",
  "excerpt": "The pH was carefully monitored throughout the experiments and readjusted with Tris-base or acetic acid if necessary. Ligands 3′-UMP (Chemical Impex Intl Inc., Wood Dale, IL, USA) and 5′-AMP (BioBasic Inc., Markham, ON Canada) were purchased commercially and dissolved in the same buffer as the protein. ^1H-^15N sensitivity-enhanced HSQC experiments were acquired at 800 MHz (18.8 T) using spectral widths (points) of 2025 (160) and 8000 Hz (1024) in the ω1 and ω2 dimensions, respectively. Titration experiments were performed for each ligand with enzyme:ligand molar ratios up to 1:12 (1:12), 1:18 (1:18), 1:24 (1:18), 1:30 (1:18) and 1:18 (1:30) for the 3′-UMP- (5′-AMP-) bound states of bovine RNase A and human RNases 2, 3, 4, and 5, respectively.\nThe equilibrium dissociation constant (Kd) was calculated by plotting weighted average chemical shift differences (Δδobs) as a function of ligand concentration and fitting the data using the following equation: […]\nThe Kd was estimated by simultaneously fitting the data of all residues affected by ligand binding (Williamson, [2013]). We note that Δδmax is a fitted parameter and not an experimentally measured one. […] Chemical shift perturbations (Δδobs) were calculated as the difference in the weighted average chemical shift of the ligand-bound (5′-AMP and 3′-UMP) and apo states, as shown below. […]",
  "data": [
    {"substance": "dATATA", "values": [
      {"measurement": "Kd", "value": "384 ± 33.3", "unit": "µM"}
    ]}
  ]
}
